The test system of experiment [1] is SK-BR-3 breast cancer cell (HER2+). Nature of the experiment: In vitro anti-proliferative study (NBB staining, 6 days). It is filed as cell-based. Particulars: SK-BR-3 (HER2+), 6 days incubation. The protocol:
(§1) The selective binding and internalization behavior of ADC are then examined by flow cytometry and confocal microscopy, using two HER2-overexpressed SK-BR-3 breast cancer cells and SK-OV-3 ovarian cancer cells, as well as two HER2-negative MDA-MB-231 breast cancer cells and MCF-10A breast epithelial cells. Briefly, Different cell lines (1×10^3 cells/well) are seeded in a microtiter plate (96 well) and incubated overnight before the treatment. Different concentrations of erianin, trastuzumab and ADC are added into the wells and then incubated for 6 days. After the media is removed, the cells are fixed with formaldehyde (3%; 50 μL) in PBS and stained with NBB reagent (0.05%, 0.1 M sodium acetate, 9% acetic acid; 50 μL) for overnight. The stained cells in each well are washed thrice gently with deionized water and solubilized in sodium hydroxide solution (50 mM; 100 μL). The cell viability is determined by measuring the absorbance of 620 nm in each well by microplate reader. The experiments are repeated in triplicate. The IC50 values are presented as the mean±standard deviation.

The subject of experiment [2] is MDA-MB-231 breast cancer cell (HER2−). Described as above. It is filed as cell-based. Particulars: MDA-MB-231 (HER2−), 6 days incubation. On the procedure: as §1
Experiment [3] deals with MCF-10A breast epithelial cell (HER2−). Described as above. It is filed as cell-based. As to conditions: MCF-10A (HER2−), 6 days incubation. On the procedure: as §1
Experiment [4] deals with SK-OV-3, SK-BR-3, MDA-MB-231 and MCF-10A cells. Nature of the experiment: In vitro anti-proliferative study, statements over several cell lines. It is filed as cell-based. On the procedure: as §1
In experiment [5] the test system is HER2-positive SK-OV-3 human ovarian cancer xenograft. Nature of the experiment: Antitumor activity in SK-OV-3 xenograft model. It counts as in vivo, Female BALB/cAnN-nu (nude) mice. Particulars: 20 mg/kg intravenous, four doses (day 0, 4, 8, 12).
Experiment [6] relates to SK-OV-3 ovarian cancer cell (HER2+). The experiment can be described thus: In vitro anti-proliferative study (NBB staining, 6 days). It counts as cell-based, human. Particulars: SK-OV-3 (HER2+), 6 days incubation. The protocol: as §1
Experiment [7] concerns HER2-positive cancer cells and HER2-negative cell lines. Nature of the experiment: Confocal microscopic study of Alexa 647-labelled ADC. It is filed as cell-based. As to conditions: incubated at 37° C., 24 h.

Where two headings read alike, the source gives them in different places.

Turning to “Trastuzumab (mAb): a well-known monoclonal antibody that targets the HER2 receptor”, the half-inhibitory concentration (IC50) was > 4 µM in experiment [1] (mean±SD, read-out: IC50); “(>0.60 mg/mL)” in experiment [1] (value in brackets); > 4 µM in experiment [2] (mean±SD, read-out: IC50); “(>0.60 mg/mL)” in experiment [2] (value in brackets); “(>0.60 mg/mL)” in experiment [3] (value in brackets); > 4 µM in experiment [3] (read-out: IC50). The IC50 in experiment [6] (mean±SD, read-out: IC50) is > 4 µM; in experiment [6] (value in brackets), “(>0.60 mg/mL)”. Besides, the cell growth inhibition result in experiment [4] (all the cells) is on record as “not obvious”. Further, the antitumor activity result in experiment [5] is on record as “apparent antitumor activity”.
For “Trastuzumab-Erianin (ADC): trastuzumab conjugated with erianin through a Val-Cit cathepsin B cleavable linker and self-immolative spacer via maleimidocaproyl-cysteine; DAR 8”, the IC50 in experiment [1] (mean±SD, read-out: IC50) is 0.9 µM; in experiment [1] (value in brackets), “(0.13 mg/mL)”; in experiment [2] (mean±SD, read-out: IC50), 3.9 ± 0.05 µM; in experiment [2] (value in brackets), “(0.58 mg/mL)”; in experiment [3] (value in brackets), “(>0.60 mg/mL)”; in experiment [3] (read-out: IC50) it was > 4 µM. The concentration for half-maximal inhibition (IC50) in experiment [6] (mean±SD, listed as ADC, read-out: IC50) was 0.6 µM; in experiment [6] (mean±SD, read-out: IC50) it was 0.59 ± 0.08 µM; in experiment [6] (value in brackets), “(0.088 mg/mL)”. Moreover, the “anti-proliferative effect on HER2-negative cell lines” value in experiment [4] (HER2-negative cell lines, compared with HER2-positive cells) is given as “less effects”. The “colocalization with LysoTracker Green” value in experiment [7] was “some of the red dots of ADC are located at lysosomes”.

What is called IC50 is the concentration at which inhibition is half-maximal.

Source of the values: US20250152723A1, “ANTIBODY-DRUG CONJUGATES INVOLVING ERIANIN AND THE FABRICATION METHODS AND APPLICATIONS THEREOF” (Laboratory for Synthetic Chemistry and Chemical Biology …, priority 2023, published 2025).
